The numbers were not newly measured in US12552784B2, “1H-pyrrolo[2,3-b]pyridine derivatives as BCL-2 inhibitors for the treatment of neoplastic and autoimmune diseases” (priority 2019, dated 2026), which cites them from elsewhere.

Protein sequences, listed by entry. Tags and fused reporters are not part of them.
UniProt Q07820, whole entry: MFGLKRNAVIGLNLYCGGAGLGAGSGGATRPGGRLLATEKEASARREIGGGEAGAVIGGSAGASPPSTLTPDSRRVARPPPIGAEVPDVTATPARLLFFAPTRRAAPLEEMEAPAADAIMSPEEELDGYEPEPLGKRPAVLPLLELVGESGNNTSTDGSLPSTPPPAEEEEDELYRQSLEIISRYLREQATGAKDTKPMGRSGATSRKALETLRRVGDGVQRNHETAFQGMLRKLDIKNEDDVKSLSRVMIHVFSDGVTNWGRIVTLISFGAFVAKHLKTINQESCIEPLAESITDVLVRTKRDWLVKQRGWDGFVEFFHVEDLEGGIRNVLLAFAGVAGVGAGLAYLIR
UniProt P10415, whole entry: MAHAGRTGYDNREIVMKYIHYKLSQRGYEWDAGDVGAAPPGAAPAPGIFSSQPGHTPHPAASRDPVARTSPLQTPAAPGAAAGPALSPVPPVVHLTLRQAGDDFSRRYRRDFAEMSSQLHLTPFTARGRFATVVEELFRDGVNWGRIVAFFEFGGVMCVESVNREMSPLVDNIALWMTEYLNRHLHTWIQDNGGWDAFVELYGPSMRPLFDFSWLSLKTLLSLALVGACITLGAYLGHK

One data set deals with Mcl-1 (Homo sapiens, UniProt Q07820).
The next data set addresses Bcl-2 (Homo sapiens, UniProt P10415).

For `CC1(C)CCC(CN2CCN(c3ccc(C(=O)NS(=O)(=O)c4ccc(NCC5CCOCC5)c([N+](=O)[O-])c4)c(Oc4cnc5[nH]ccc5c4)c3)CC2)=C(c2ccc(Cl)cc2)C1` [ABT-199], on Mcl-1, the “activity to Mcl-1” value was “no activity”.
In the case of `CC1(C)CCC(c2ccc(Cl)cc2)=C(CN2CCN(c3ccc(C(=O)NS(=O)(=O)c4ccc(N[C@H](CCN5CCOCC5)CSc5ccccc5)c(S(=O)(=O)C(F)(F)F)c4)cc3)CC2)C1` [ABT-263], the Ki on Bcl-2 was at most 1 nM.

Broadly, the Ki is the equilibrium dissociation constant of an inhibitor or competing ligand from its target.
